# System: P37840
# Experiment: SEC; quantitative SEC under bulk conditions, Superdex 75 10/300, 50 μl of the AF488/AF647-labeled mixture (70 μM) at different incubation times, absorbance at 280, 488 and 647 nm; oligomers elute in the void volume (7 ml), monomer at 9.3 ml
substance,measurement,value
A90C mutant variant of α-synuclein labeled with Alexa Fluor 488 or Alexa Fluor 647,mass fraction of soluble aggregates,very low (≤5%)
